Measured values as given in US8613905B2, “Diagnostic agent” (United Arab Emirates University, priority 2007, dated 2013).
Entries after “also recorded” stand apart in the source; their conditions may differ.

Experiment: Microscopic investigation of BBB permeability and pharmacokinetics in normal mice
Format: in vivo
Conditions: iv
Method: Normal mice were injected intravenously with 100 μg/100 μl of peptide OR6 and 50 μg/200 μl of peptide 5 or PBS solution (n=2 for each group). Animals injected with OR6 were sacrificed after 5, 15, 30 and 60 min, whilst mice injected with OR5 were sacrificed after 5, 10, 15, 20 and 30 min. The whole brains, kidney and liver were removed. The tissues were fixed in 10% formaldehyde in phosphate buffer (PB) for over night at room temperature (RT) and next day were then transferred to 30% sucrose in PB and incubated for another over night at 4° C. The brains were then cut into 70-mm frozen sections using a cryostat. Brain slices were washed with PBS before incubated with 3% hydrogen peroxide (in 50% ethanol) for 30 min at RT. After washing with PBS, the sections were incubated with Extravidin peroxidase (1:500 in PBS containing 0.3% triton) and incubated for 1 hr at RT, prior to washing with PBS (2 changes over 5 min) and the last wash in PB. DAB (3,3′ diaminobenzidine tetrahydrochloride) is applied for 15 min, before washing 3× in PB for 5 min. The sections were placed on gelatin coated slides and left to dry overnight. Next day the slides were hydrated in water for 3 min and then dehydrated for 5 min in each of: 50% ethanol, 70% ethanol, 95% ethanol, 100% ethanol (2×) and xylene (2×). Slides were then mounted in DPX-xylene for viewing under the microscope.

**Q.** With “Gd-DOTA-r-Sar-vva-Sar-K(biotin)-butadiamine [OR6]” as the substance, how does the “staining / clearance in the cerebellum at 1 hr post-injection” value read?
**A.** The value was “started to be fainter; also recorded: might be getting cleared from the cerebellum”.
